Measured values as given in patent US20090305951A1.

Biological target: His-tagged (C-terminal hexa-histidine) version of FGF-receptor 1, expressed in transfected HEK293 cells
Assay: cell-based or functional assay

FGF-receptor phosphorylation (anti-phosphotyrosine immunoblot of His-purified FGF-receptor 1 from transfected HEK293 cells, 20 min stimulation): 150%
Substance: second F3 module of NCAM (recombinant protein corresponding to aminoacids 612-705 of rat NCAM, with two N-terminal vector residues A and G) (from UniProt P13596 612-705)
